## Yeast mating assay 2: variants of the scFv Ab-95

From the AlphaSeq antibody data of Engelhart et al. 2022 (doi:10.1038/s41597-022-01779-4), copy in the FLAb collection.

Target peptide (SARS-CoV-2 spike, HR2 region): PDVDLGDISGINAS

The variants keep the heavy chain, the linker and the frameworks of Ab-95 (scFv order VH, a (GGGGS)3 linker, VL).
VH: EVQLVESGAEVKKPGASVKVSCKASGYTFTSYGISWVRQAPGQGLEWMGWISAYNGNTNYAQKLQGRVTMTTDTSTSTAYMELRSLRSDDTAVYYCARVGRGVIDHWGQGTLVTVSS
VL: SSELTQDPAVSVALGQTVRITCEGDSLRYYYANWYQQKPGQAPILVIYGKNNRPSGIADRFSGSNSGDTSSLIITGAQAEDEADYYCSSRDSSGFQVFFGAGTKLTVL

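The parent was found by panning a naive human phage display library on the peptide. In library AAYL52, one, two or three CDR residues were substituted; doubles and triples were drawn at random. In AlphaSeq, yeast of one mating type display the scFv and yeast of the other type display the target. Pairs that bind mate more often; barcode pairs of the diploids are counted by sequencing. Each replicate has its own calibration line, from reference interactions of the BCL2 family. There are three technical replicates.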

Changes read parent residue, position, new residue, counted from the first residue of the VL shown. Values are log10 of the apparent Kd in nM; lower means stronger binding. The mean shown is taken over the replicates in which the pair was detected. Where no diploid with the target was found in any replicate, the entry reads "no signal": below detection, most likely a poor binder, though not proof of it.

changes | mean, log10 nM | detected | empty controls
A32Q R90D S92Q | no signal | 0 of 3 | 1 of 9
R28V N51T S92K | 3.65 | 2 of 3 | 0 of 9
N52D P54K S55K | 2.68 | 3 of 3 | 3 of 9
D25V R28G A32K | 4.57 | 3 of 3 | 2 of 9
S26A N51L R90I | no signal | 0 of 3 | 0 of 9
K50P S93E Q96L | 4.46 | 1 of 3 | 1 of 9
G49I K50W R53H | 3.17 | 2 of 3 | 0 of 9
Y29P N51E | 3.99 | 3 of 3 | 1 of 9
Y29S K50N N51K | 2.67 | 3 of 3 | 5 of 9
L27T S92Y F95I | no signal | 0 of 3 | 0 of 9
Y31L N33Q D91R | 3.41 | 3 of 3 | 5 of 9
E23F G24Y S88L | 3.82 | 2 of 3 | 4 of 9
Y30T R90S S92F | 2.10 | 3 of 3 | 6 of 9
N51Q P54H S92Q | 3.25 | 1 of 3 | 0 of 9
L27N S93L F98C | 3.49 | 3 of 3 | 1 of 9
E23S S92H | 2.57 | 3 of 3 | 2 of 9
N51R N52P | 5.07 | 1 of 3 | 2 of 9
S26V G94Q F95P | 3.49 | 1 of 3 | 3 of 9
R28W Y31W G49K | 3.65 | 1 of 3 | 5 of 9
N33C S89G S93Q | 5.43 | 1 of 3 | 2 of 9
E23V G24D D25L | no signal | 0 of 3 | 0 of 9
R28T R90T S93L | 3.65 | 1 of 3 | 1 of 9
N51T P54Y F95K | 3.84 | 1 of 3 | 4 of 9
S26N Y30P A32K | 1.52 | 3 of 3 | 4 of 9
G49W R90L G94K | no signal | 0 of 3 | 2 of 9
D25C Y30H F98T | 2.32 | 3 of 3 | 0 of 9
D25Y Y30M G49F | 4.59 | 1 of 3 | 1 of 9
Y29I Y31A R53P | 3.32 | 1 of 3 | 4 of 9
G49M S89N | 4.02 | 3 of 3 | 5 of 9
Y29R A32N G49S | 4.08 | 1 of 3 | 1 of 9
Y31M K50L R90N | no signal | 0 of 3 | 1 of 9
R28F N33Y | 4.09 | 1 of 3 | 1 of 9
E23R G49H S89K | no signal | 0 of 3 | 3 of 9
Y30L N51S R90L | 4.47 | 2 of 3 | 3 of 9
G49P S88R Q96Y | 3.74 | 2 of 3 | 4 of 9
S26C S55H F95P | 3.47 | 1 of 3 | 1 of 9
L27Q R90V S93P | 4.11 | 1 of 3 | 1 of 9
S26V S89Y F98C | 3.72 | 2 of 3 | 1 of 9
Y31V N33G F98R | 3.58 | 1 of 3 | 1 of 9
N51W R90L F95G | 2.52 | 1 of 3 | 2 of 9
E23H R90G S92M | 3.27 | 1 of 3 | 4 of 9
D25E Y29K D91R | 2.65 | 3 of 3 | 3 of 9
E23K S89F Q96F | 2.46 | 3 of 3 | 3 of 9
N52H P54I Q96R | no signal | 0 of 3 | 1 of 9
K50S S93G | 3.64 | 3 of 3 | 5 of 9
G49W N51G S92D | 4.47 | 1 of 3 | 2 of 9
L27W R90I S93L | no signal | 0 of 3 | 3 of 9
Y31K N33H S92T | 3.65 | 2 of 3 | 0 of 9
R28E R53S R90H | 3.53 | 3 of 3 | 6 of 9
D25E N52Q S93T | 1.34 | 3 of 3 | 1 of 9
Y31N R90N | 0.87 | 3 of 3 | 0 of 9
S26A N33L S88M | no signal | 0 of 3 | 2 of 9
K50D G94K F95L | 1.65 | 3 of 3 | 4 of 9
E23A Y30F S93A | 2.45 | 3 of 3 | 2 of 9
S26V G49Q Q96S | no signal | 0 of 3 | 0 of 9
G24Q D25H F98I | 3.76 | 2 of 3 | 4 of 9
E23D G24Y S26T | 3.35 | 1 of 3 | 1 of 9

8 of these entries, quoted again:

{"changes": "E23H R90G S92M", "mean, log10 nM": "3.27", "detected": "1 of 3", "empty controls": "4 of 9"}
{"changes": "E23K S89F Q96F", "mean, log10 nM": "2.46", "detected": "3 of 3", "empty controls": "3 of 9"}
{"changes": "L27Q R90V S93P", "mean, log10 nM": "4.11", "detected": "1 of 3", "empty controls": "1 of 9"}
{"changes": "E23A Y30F S93A", "mean, log10 nM": "2.45", "detected": "3 of 3", "empty controls": "2 of 9"}
{"changes": "A32Q R90D S92Q", "mean, log10 nM": "no signal", "detected": "0 of 3", "empty controls": "1 of 9"}
{"changes": "Y29P N51E", "mean, log10 nM": "3.99", "detected": "3 of 3", "empty controls": "1 of 9"}
{"changes": "N33C S89G S93Q", "mean, log10 nM": "5.43", "detected": "1 of 3", "empty controls": "2 of 9"}
{"changes": "Y29I Y31A R53P", "mean, log10 nM": "3.32", "detected": "1 of 3", "empty controls": "4 of 9"}

Background: pairings of library AAYL52 with three empty control strains gave a value in 28% of cases (median 3.91, 5th percentile 2.90). Values in that range, when seen in few replicates, are hard to tell from nonspecific mating. The control count says in how many pairings with the empty strains this scFv gave a signal. Parent in this assay: reference entry 2.31, copy in this library 2.25.